# In paper PMC9085437, “Silica-coated magnetic iron oxide functionalized with hydrophobic polymeric ionic liquid: a promising nanoscale sorbent for simultaneous extraction of antidiabetic drugs from human plasma prior to their quantitation by HPLC” (RSC Advances, 2018):
# Assay: Pharmacokinetic assessment in healthy fed male volunteers after oral tablet administration, plasma quantified by MSPE-HPLC-UV
# Conditions: human plasma, oral fixed-dose combination Invokamet tablet (50 mg CANA/500 mg MET), mean ± SD
# Description: The chromatographic analysis was conducted using a Waters alliance e2695, (Massachusetts, USA) system which was equipped with a Waters 2487 dual wavelength detector and C18 TMS endcapping/reversed phase column (Luna 5 μm C18 100 A HPLC column 250 × 4.6 mm id, Phenomenex Co, Torrance, CA) at 40 °C. The mobile phase which being used in an isocratic mode was composed of potassium dihydrogen phosphate and sodium dodecyl sulfate (0.01 M, pH 6): acetonitrile (55 : 45, v/v) and passed through column with flow rate of 1 mL min^−1 (the mobile phase was filtered and degassed daily prior to use in HPLC). […] The column effluent was monitored at UV wavelength of 215 nm and the injection volume was 20.0 μL. The mobile phase was filtered by passing it through a 0.2 μm membrane filter (Millipore, Bedford, MA, USA).
# Every frozen human plasma were firstly thawed at room temperature and placed into a sample glass tube. Preparation of plasma before MSPE method was based on protein precipitation with aid of acetonitrile. In this regard, the plasma (1.9 mL) was fortified with 100.0 μL of required concentrations of analytes followed by mixing with 2.0 mL ACN. The obtained solution was vortexed for 1 min and centrifuged for 5 min at 3500 rpm. Then, ACN content of the clear supernatant was evaporated under nitrogen stream and the remaining sample was transferred into 4.0 mL buffer solution at pH 4.0. […]
smiles,measurement,value
"CN(C)C(=N)N=C(N)N [MET, metformin]",AUC0–∞,7022.8 ± 703.6 ng·h/mL
